Values of other authors as cited in publication PMC2692298.

Chains of the proteins cited; added tags and fusions are not shown. Residues count along the entry.
UniProt P48061, 22-89: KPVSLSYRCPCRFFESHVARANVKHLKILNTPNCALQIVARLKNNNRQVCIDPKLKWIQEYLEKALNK

Molecular target: SDF-1/CXCL12 (Homo sapiens) (UniProt P48061)
Assay: diffusion coefficient
Conditions: cited from earlier work

In the case of SDF-1/CXCL12 (from UniProt P48061), the Kd is listed as 120 µM.
